Results: patent US8936787B2, “Peptides promoting lipid efflux” (The United States of America as represented by the …, priority 2008, dated 2015)

System: red blood cells
Experiment: Red blood cell hemolysis assay
Assay type: cell-based
Conditions: 1 hour at 37° C., maximum dose tested
Procedure: FIG. 9 is a graph illustrating red blood cell lysis by the 37pA peptide and derivative peptides (1A, 2A, 3A, 4A, 5A, and 10A). Red blood cells were incubated with the indicated concentration of the peptides for 1 hour at 37° C. Results are expressed as the mean of triplicates ±1 SD.
The 37pA peptide and all of the modified peptides were then tested for cytotoxicity, using a red blood cell hemolysis assay (FIG. 9). […] Approximately 25% of the red blood cells were lysed after 1 hour at the maximum dose tested (FIG. 9). Overall, the modified peptides containing the Ala substitutions were less cytotoxic, and the degree of cytotoxicity closely correlated with the number of Ala substitutions.

Sequence: DWLKAFYDKVAEKLKEAFPDWLKAFYDKVA EKLKEAF [37pA, reference compound]
- red blood cells lysed (hemolysis): Approximately 25%
